Laboratory results from US20260209301A1, “Galanin-2 Receptor Agonists” (LIFEARC, priority 2022, published 2026).

By UniProt entry, the sequences of proteins in these tests, tags left out. Where a name states a change or a piece, a line headed by the entry shows the natural chain unless it says otherwise.
UniProt P47211: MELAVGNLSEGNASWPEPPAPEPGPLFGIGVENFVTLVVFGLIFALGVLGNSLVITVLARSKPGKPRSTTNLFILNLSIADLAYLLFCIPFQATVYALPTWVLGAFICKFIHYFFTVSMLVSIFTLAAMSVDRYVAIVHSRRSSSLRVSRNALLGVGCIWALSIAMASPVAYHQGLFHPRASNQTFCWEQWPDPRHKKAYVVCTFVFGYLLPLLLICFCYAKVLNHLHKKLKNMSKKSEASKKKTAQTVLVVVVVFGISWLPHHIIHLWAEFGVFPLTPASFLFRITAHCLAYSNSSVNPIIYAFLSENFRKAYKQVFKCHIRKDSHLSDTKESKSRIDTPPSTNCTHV

Tests used:
Assay type in all cases: cell-based
GALR1 [1] = molecular target: T1, GALR1 (Homo sapiens, UniProt P47211); test: Luciferase reporter gene assay (SRE), HEK293 Gqi cells; design: expressed in transfected cells; host or cells: genetically modified HEK293 Gqi cells, transient; conditions: Table 5, quantity not named, n ≥ 3
GALR1 [2] = molecular target: T1, GALR1; test: β-arrestin recruitment, PathHunter CHO-K1 GALR1 cells; conditions: for GalR1 Beta Arrestin pEC50: Table 3, mean +/− standard deviation, n ≥ 3, highest concentration 1 μM (galnon 100 μM); for GalR1 Beta Arrestin IA (%): maximum response at highest concentration tested (1 μM, except galnon at 100 μM), relative to galanin
GALR1 [3] = molecular target: T1, GALR1; test: cAMP HTRF assay, CHO GalR1 cells; design: expressed in transfected cells; host or cells: CHO (Flp-In, pcDNA5/FRT); conditions: for GalR1 cAMP pEC50: Table 3, n ≥ 3, highest concentration 1 μM (galnon 100 μM); for GalR1 activity (cAMP assay), warhead length: Table 6; for GalR1 cAMP IA (%): maximum response at highest concentration tested (1 μM, except galnon at 100 μM), relative to galanin
human GalR1 = test: cAMP HTRF assay, CHO GalR1 cells; conditions: functional assays GalR2 vs GalR1, Tables 2 and 3
[4] = mean +/− standard deviation, highest concentration tested 10 μM

Substance | EC50 (GALR1 [1]) [nM] | GalR1 Beta Arrestin pEC50 (GALR1 [2]) | GalR1 Beta Arrestin IA (%) (GALR1 [2]) | GalR1 cAMP pEC50 (GALR1 [3]; mean +/− standard deviation) | GalR1 activity (cAMP assay), warhead length (GALR1 [3]; [4]) | GalR1 cAMP IA (%) (GALR1 [3]) | selectivity GalR2 compared to GalR1 (in words) (human GalR1) | GalR1 activity (cAMP assay), linker variants (GALR1 [3]; Table 7, mean +/− standard deviation, highest concentration tested 10 μM)
Gal2-30FC: galanin 2-30, AEAAAKEAAAKA linker, human IgG1 FC; SEQ ID NO: 28 | > 1000 | N/A (N/A denotes activity failed to reach 50% of that of galanin.) | 42.8 +/− 8.5% | 7.0 +/− 0.4 | 7.0 +/− 0.4 | 80.2 +/− 14.8% | GalR2-preferring | –
Gal2-24FC: galanin 2-24, AEAAAKEAAAKA linker, human IgG1 FC; SEQ ID NO: 27 | – | N/A (N/A denotes activity failed to reach 50% of that of galanin.) | 44.9 +/− 8.4% | 6.5 +/− 0.3 | 6.5 +/− 0.3 | 65.8 +/− 10.7% | GalR2-preferring | –
Gal2-12FC: galanin 2-12, AEAAAKEAAAKA linker, human IgG1 FC; SEQ ID NO: 25 | > 1000 | – | – | – | 5.4 +/− 0.1 | – | – | –
Gal2-18FC: galanin 2-18, AEAAAKEAAAKA linker, human IgG1 FC; SEQ ID NO: 26 | – | N/A (N/A denotes activity failed to reach 50% of that of galanin.) | 27.3 +/− 5.2% | 6.3 +/− 0.3 | 6.3 +/− 0.3 | 59.8 +/− 15.7% | GalR2-preferring | –
Gal2-13FC: galanin 2-13, AEAAAKEAAAKA linker, human IgG1 FC; SEQ ID NO: 7 | > 1000 | N/A (N/A denotes activity failed to reach 50% of that of galanin.) | 0.8 +/− 1.9% | N/A (N/A denotes activity failed to reach 50% of that of galanin.) | 5.3 +/− 0.2 | 7.5 +/− 15.3% | GalR2-specific | 5.1 +/− 0.2
